Reference: patent publication US6465479B1, “Pyridomorphinans and use thereof” (Southern Research Institute, priority 1999, dated 2002)

Amino acid sequences for entries named in this document (tags omitted).
UniProt P33535, whole entry: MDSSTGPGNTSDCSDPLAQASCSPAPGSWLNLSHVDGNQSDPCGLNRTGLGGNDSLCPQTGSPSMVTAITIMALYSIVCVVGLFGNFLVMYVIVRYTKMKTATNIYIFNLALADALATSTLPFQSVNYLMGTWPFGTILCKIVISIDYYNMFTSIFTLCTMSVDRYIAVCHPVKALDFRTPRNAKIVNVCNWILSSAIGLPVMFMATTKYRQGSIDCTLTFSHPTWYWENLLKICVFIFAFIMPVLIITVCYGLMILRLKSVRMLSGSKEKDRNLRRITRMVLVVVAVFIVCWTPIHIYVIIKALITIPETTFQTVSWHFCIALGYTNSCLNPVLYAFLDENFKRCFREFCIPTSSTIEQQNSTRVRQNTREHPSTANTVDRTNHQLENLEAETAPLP

Target: T1, μ receptors (Rattus norvegicus, UniProt P33535)
T1 construct: [^3H]DAMGO and [^3H]DADLE to rat brain membranes; from tissue; host or cells: rat brain membranes
Experiment: μ opioid receptor binding, displacement of [3H]DAMGO in rat brain membranes
Details: displacement of [3H]DAMGO (1.4-3.0 nM), read-out: K1 (nM) ± SEM μ

Oc1ccc2c3c1O[C@H]1c4[nH]c5ccccc5c4C[C@@]4(O)[C@@H](C2)N(CC2CC2)CC[C@]314 [naltrindole, reference compound]
Ki: 99 ± 4.6 nM
